Shown are actives, neighbours in structure and some others; about 13% of the full set was active somewhere.
KDM4E inh = JMJD2E (human) inhibition; B2RXH2; JMJD2E catalytic domain, FDH-coupled NADH fluorescence (FDH is formaldehyde dehydrogenase); Potency, µM (top dose mostly 57.1 µM), without a hit: top-dose activity change, negative = inhibition, usual class: inhibitors; 230,000 tested, 1.6% active; AID 2147; active means well fitted inhibition curve with a large enough effect, not every such curve was filed as active; inconclusive means small, poorly fitted or top-dose-only effect, or another doubt; inactive means no such curve, though single readings can be large or run the other way;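 further: potency means the concentration at half of the fitted maximal effect; 0% = wells with enzyme and -100% = buffer wells without enzyme; nearly all actives have a fitted effect of over 50% in size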
Lamin A splicing = LMNA splicing modulation. HeLa LMNA splicing GFP/RFP minigene ratio, 48 h. Potency, µM (top dose mostly 46.1 µM), for inactives: at the highest dose ratio change, negative = inhibition, hits mostly inhibitors. 200,000 tested, 0.01% active. AID 1487; active means well fitted inhibition curve with a large enough effect in the signal ratio, with a control signal flat, not every such curve was filed as active; inconclusive means small, poorly fitted or top-dose-only effect, or effect the other way, or a change in a side signal; the % refers to the signal ratio; further: potency means the concentration at half of the fitted maximal effect; on the % scale 0 is the no-effect control and ±100 the full control effect
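S3 HeLa stable clones carrying a lamin A-EGFP splicing minigene plus DsRed2 were seeded at 600 cells/well in Opti-MEM with 2% FBS, pin-dosed and incubated 48 h at 37°C. Acumen cytometry (488 nm) gave the GFP/RFP total-intensity ratio.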
G9a inh = blocks human histone lysine methyltransferase G9a. Q96KQ7. G9a H3K9 monomethylation, AlphaScreen, 2 h. Potency, µM (titrated, usually from 102 µM), for the others: top-dose activity, negative = inhibition, hits mostly inhibitors. 350,000 tested, 8.8% active. AID 504332; further: potency means the concentration at half of the fitted maximal effect; on the % scale 0 is the no-effect control and ±100 the full control effect; nearly all actives have a fitted effect of over 75% in size
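Quantitative HTS format: methyltransferase activity on a biotin-tagged H3K9 peptide is measured by AlphaScreen, using a rabbit anti-monomethyl-H3K9 antibody with streptavidin donor and anti-IgG acceptor beads. Final levels are 20 nM enzyme, 500 nM peptide, 20 uM SAM; 2 h RT.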
miR-21 reporter = raises the signal of a miR-21 reporter | HeLa miR-21 FLuc reporter, luciferase, 48 h | Potency, µM (highest dose often 38.3 µM), for inactives: at the highest dose reporter change, positive = more light | 340,000 tested, under 10 active | AID 2288; active = well fitted rising curve with a large enough effect; inconclusive = small, poorly fitted or top-dose-only effect; inactive = no such curve, though single readings can be large or run the other way;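 also: % of control where 0% means no effect; miR-21 action dims this reporter so a rising signal means less miR-21 action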
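HeLa miR-21-FLuc reporter line, endogenous miR-21; 2000 cells/well in DMEM/10% FBS; compound titration up to ~40uM final, 48 h, 37 degree Celsius; luciferase detection reagent, 15 min lysis, CCD luminescence.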
ALDH1A1 block = blocks purified human ALDH1A1 activity | Potency, µM (top dose mostly 75.3 µM), inactives show top-dose activity, negative = inhibition, usual class: inhibitors | Purified ALDH1A1, NADH fluorescence, propionaldehyde substrate | AID 1030 | 220,000 tested, 7.3% active | P00352; active means well fitted inhibition curve with a large enough effect, not every such curve was filed as active; inconclusive means small, poorly fitted or top-dose-only effect, or another doubt; inactive means no such curve, though single readings can be large or run the other way;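 further: potency means the concentration at half of the fitted maximal effect; plate controls were no enzyme wells and a reference inhibitor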
Sfp PPTase inh = inhibitors of Bacillus subtilis Sfp phosphopantetheinyl transferase. Q9F4F7. Biochemical Sfp PPTase activity, qHTS. Potency, µM, without a hit: max response, negative = inhibition, most hits filed as inhibitors. 3.5% of 310,000 active; active = well fitted inhibition curve with a large enough effect; inconclusive = small, poorly fitted or top-dose-only effect, or another doubt; inactive = no such curve, though single readings can be large or run the other way;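 note: the enzyme is Sfp with the accession as filed and its product quenches rhodamine fluorescence; potency is the fitted concentration of half-maximal effect; 0% = enzyme reaction without inhibitor and -100% = no enzyme wells; top concentration of the series not given in the record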
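After 15 min at room temperature with compound, 15 nM Sfp received 5 uM rhodamine-CoA plus 12.5 uM BHQ-2-ybbR (50 mM Hepes pH 7.6, 10 mM MgCl2). Rate came from the fluorescence difference over 30 min, ex 525/em 598 nm.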
* marks the source's active call; other numbers are inactive results; u = inconclusive; x = no result given; [ ] = remark or other dose. Unless noted, the call rests on the fitted dose curve; in most records, active means well fitted curve in the direction sought with a large enough effect; inconclusive means small, poorly fitted or top-dose-only effect, or another doubt; inactive means no such curve, though single readings can be large; an effect the other way counts as inactive or inconclusive.

Short forms – A = KDM4E inh; B = Lamin A splicing; C = G9a inh; D = miR-21 reporter; E = ALDH1A1 block; F = Sfp PPTase inh
Cc1cccc(NC(=O)c2ccc(Cn3nc(N4CCN(c5ccccc5)CC4)ccc3=O)o2)c1C
  A: x; B: x; C: u; D: 20.3%; E: x; F: x

CCc1ccc(Nc2nnc(-n3nc(C)cc3C)c3ccccc23)cc1
  A: x; B: x; C: 35.1%[59 µM]; D: -10.5%; E: x; F: x

N#C/C(=C/c1ccc(O)c(O)c1)C(=O)NCc1ccc(Cl)cc1
  A: x; B: x; C: 11.2µM*; D: -11.8%; E: x; F: -10.9%

CC(NC(=O)/C(C#N)=C/c1ccc(OCC(=O)O)cc1)c1ccccc1 (configuration not stated)
  A: x; B: x; C: x; D: 0.2%; E: x; F: u

CC(NC(=O)/C(C#N)=C/c1ccc(Cl)c([N+](=O)[O-])c1)c1ccccc1 (configuration not stated)
  A: 3.5%; B: u; C: u; D: u; E: 6.5%; F: 25.1µM*

C[C@H](NC(=O)/C(C#N)=C/c1ccc(O)c(O)c1)c1ccccc1
  A: 7.08µM*; B: u; C: 7.94µM*; D: x; E: u; F: u

N#C/C(=C\c1ccc(O)c([N+](=O)[O-])c1)C(=O)NCc1ccccc1
  A: -1.1%; B: x; C: u; D: 8.9%; E: -10.8%; F: -19.1%

N#C/C(=C/c1ccc(O)c(O)c1)C(=O)OC/C=C/c1ccccc1
  A: x; B: x; C: 1.58µM*; D: x; E: 4.47µM*; F: 19.5%

CCCOc1ccc(-c2nc(-c3ccc(N)cc3)cs2)cc1
  A: -28.6%; B: x; C: 0.1%; D: -46.2%; E: x; F: u

COCCCNC(=O)CSc1nc2cc3c(cc2c(=O)n1CCCCCC(=O)NCc1ccc(OC)cc1)OCO3
  A: x; B: -0.1%[46 µM]; C: 7.6%[59 µM]; D: 6.4%; E: x; F: x

CN(C)Cc1ccccc1-c1nccc(N(C)Cc2ccco2)n1
  A: x; B: -7.5%; C: -1.3%[0.501 µM]; D: x; E: -8.4%; F: 3.7%

Cc1nc(-c2ccc(S(=O)(=O)NCc3ccc(OC(C)C)cc3)cc2)co1
  A: x; B: -6.3%[46 µM]; C: 3.0%[59 µM]; D: 3.7%; E: x; F: x

N#C/C(=C\c1ccc(O)c(O)c1)C(=O)Nc1cccc2ncccc12
  A: x; B: x; C: 8.91µM*; D: -10.5%; E: x; F: -27.2%

C[C@@H](NC(=O)/C(C#N)=C/c1ccc(O)c(O)c1)c1ccccc1
  A: 22.4µM*; B: u; C: 2.82µM*; D: x; E: -6.7%; F: -28.0%

N#C/C(=C\c1cccnc1)C(=O)Nc1ccccc1
  A: u; B: -3.8%; C: -13.7%; D: -13.8%; E: 4.3%; F: 9.3%

COc1cc(/C=C(\C#N)C(=O)Nc2cccc3ncccc23)cc(OC)c1OC
  A: u; B: u; C: -20.7%[59 µM]; D: 13.3%; E: 4.3%; F: -8.6%

N#C/C(=C\c1ccc(O)c(O)c1)C(=O)Nc1ccccc1
  A: 15.8µM*; B: u; C: 7.08µM*; D: x; E: u; F: -17.3%

COc1ccc(-c2cc3ccccc3nc2N)cc1OC
  A: x; B: x; C: 22.2%; D: 11.5%; E: x; F: 3.7%

CCCOc1cccc(C2c3c(-c4ccccc4O)n[nH]c3C(=O)N2Cc2ccco2)c1 (configuration not stated)
  A: x; B: x; C: -34.7%[59 µM]; D: u; E: x; F: x

Cc1ccc(/C=N/Nc2ccc(C(=O)O)cc2)o1
  A: -14.4%; B: -1.7%[46 µM]; C: -32.0%; D: -33.8%; E: 2.8%; F: 11.1%

CCOc1ccc(N=Cc2c(O)cc(C)oc2=O)cc1
  A: 1.0%; B: -7.2%; C: -35.3%; D: -1.4%; E: -1.4%; F: 17.3%

C/C(=N\Nc1ccccc1)c1c(O)cc(C)oc1=O
  A: -23.3%; B: u; C: 2.51µM*; D: -0.2%; E: 14.1µM*; F: -7.6%

Cc1ccc(N/N=C/c2c(O)cc(C)oc2=O)cc1
  A: -23.4%; B: u; C: u; D: -22.2%; E: u; F: 56.2µM*

Cc1cc(O)c(/C=N/Nc2ccc(F)cc2)c(=O)o1
  A: u; B: u; C: 4.47µM*; D: -1.5%; E: u; F: 79.4µM*

Cc1ccc(CO/N=C/c2c(O)cc(C)oc2=O)cc1
  A: 4.3%; B: x; C: 31.6µM*; D: 5.3%; E: 8.3%; F: -8.0%

COc1ccc(NC(=O)C2CCN(C3=NS(=O)(=O)C(c4ccc(C)c(C)c4)=C3C)CC2)c(OC)c1
  A: x; B: u; C: 44.5%[59 µM]; D: -6.9%; E: x; F: x

CCn1c(C(=O)N2CCC(C(=O)N3CCN(c4cc(C)ccc4C)CC3)CC2)cc2sccc21
  A: x; B: x; C: u; D: 19.8%; E: x; F: x

CC(=O)[C@H]1CC[C@H]2[C@@H]3C=CC4=CC(=O)CC[C@@]4(C)[C@H]3CC[C@]12C
  A: 2.5%[25.5 µM]; B: u; C: 9.5%[21.5 µM]; D: x; E: u; F: 21.6%

Cc1cc(OI)c(C(C)C)cc1-c1cc(C(C)C)c(OI)cc1C
  A: x; B: u; C: 7.94µM*; D: x; E: 7.0%; F: 56.2µM*

With a hit mark in KDM4E inh, of those listed so far:
| SMILES | KDM4E inh | G9a inh | miR-21 reporter | ALDH1A1 block | Sfp PPTase inh |
| --- | --- | --- | --- | --- | --- |
| C[C@H](NC(=O)/C(C#N)=C/c1ccc(O)c(O)c1)c1ccccc1 | 7.08µM* | 7.94µM* | x | u | u |
| C[C@@H](NC(=O)/C(C#N)=C/c1ccc(O)c(O)c1)c1ccccc1 | 22.4µM* | 2.82µM* | x | -6.7% | -28.0% |
| N#C/C(=C\c1ccc(O)c(O)c1)C(=O)Nc1ccccc1 | 15.8µM* | 7.08µM* | x | u | -17.3% |

Source: PubChem BioAssay
